# From US20090155283A1 (published 2009)
# T1: recombinant IL-1R1 (R&D Systems) (human, UniProt P14778 18-332, limits assumed)
# T1 construct: also called Interleukin 1 Receptor type 1; immobilized IL-1R1
# T1 sequence (looked up): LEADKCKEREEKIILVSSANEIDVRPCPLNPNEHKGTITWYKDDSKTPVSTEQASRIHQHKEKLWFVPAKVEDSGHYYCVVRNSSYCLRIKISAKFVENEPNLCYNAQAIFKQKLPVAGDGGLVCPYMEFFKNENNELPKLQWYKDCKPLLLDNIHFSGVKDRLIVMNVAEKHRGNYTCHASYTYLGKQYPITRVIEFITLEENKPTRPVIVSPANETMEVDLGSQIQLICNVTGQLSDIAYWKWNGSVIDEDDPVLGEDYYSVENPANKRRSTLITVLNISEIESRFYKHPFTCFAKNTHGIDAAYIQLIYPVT
# B1: Interleukin 1 receptor antagonist (IL-1ra) (ligand, UniProt P18510 26-177, looked up)
# chain: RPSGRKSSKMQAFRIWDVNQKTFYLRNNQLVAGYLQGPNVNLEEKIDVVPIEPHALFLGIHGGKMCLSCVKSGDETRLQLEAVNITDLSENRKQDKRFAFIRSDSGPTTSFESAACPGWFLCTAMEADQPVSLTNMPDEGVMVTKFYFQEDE
# Molecular target: T1, recombinant IL-1R1 (R&D Systems)
# Experiment: SPR sensorgrams (FIGS. 3A and 3B), IL-1R1 immobilized
# Experimental: IL-1ra was injected over immobilized IL-1R1 and bound to the immobilized receptor.
# To determine the epitopic specificity of the anti-IL-1R1 dAbs, competitive binding assays were performed. […] When an injection of IL-1ra was followed by an injection of IL-1α, two molecules that are known to compete for binding to the receptor, the IL-1α was also unable to bind the receptor (FIG. 3B).
binder,measurement,value
B1,binding result,binds
